# Data from patent publication US8835378B2, “Multi-domain amphipathic helical peptides and methods of their use” (The United States of America as represented by the …, priority 2004, dated 2014).
# Tested on: red blood cells
# Assay: Red blood cell hemolysis assay
# Type: cell-based
# Conditions: 1 hour at 37° C.
# Experimental: FIG. 9 is a graph illustrating red blood cell lysis by the 37pA peptide and derivative peptides (1A, 2A, 3A, 4A, 5A, and 10A). Red blood cells were incubated with the indicated concentration of the peptides for 1 hour at 37° C. Results are expressed as the mean of triplicates±1 SD.
# The 37pA peptide and all of the modified peptides were then tested for cytotoxicity, using a red blood cell hemolysis assay (FIG. 9). […] Approximately 25% of the red blood cells were lysed after 1 hour at the maximum dose tested (FIG. 9). Overall, the modified peptides containing the Ala substitutions were less cytotoxic, and the degree of cytotoxicity closely correlated with the number of Ala substitutions.
sequence,measurement,setting,value
"DWLKAFYDKVAEKLKEAFPDWLKAFYDKVA EKLKEAF [37pA, reference compound]",hemolysis / cytotoxicity to red blood cells (in words),,cytotoxic
same,red blood cells lysed,maximum dose tested,Approximately 25%
